Measured values reported in ChEMBL document CHEMBL1126552 (J Med Chem, 1993).

Amino acid sequences for entries named in this document (tags omitted).
UniProt P25099, whole entry: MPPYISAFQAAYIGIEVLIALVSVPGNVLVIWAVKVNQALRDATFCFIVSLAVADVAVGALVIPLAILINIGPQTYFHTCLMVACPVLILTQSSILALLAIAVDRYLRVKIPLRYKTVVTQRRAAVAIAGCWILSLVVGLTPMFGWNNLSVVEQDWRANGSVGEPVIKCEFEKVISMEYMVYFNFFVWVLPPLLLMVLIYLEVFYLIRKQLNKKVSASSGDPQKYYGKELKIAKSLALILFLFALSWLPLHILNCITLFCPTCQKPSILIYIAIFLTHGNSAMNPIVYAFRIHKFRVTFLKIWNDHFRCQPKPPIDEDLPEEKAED

Target: Adenosine receptor A1 (Rattus norvegicus, UniProt P25099)
Assay: Binding affinity towards adenosine A1 receptor was determined using radioligand [3H]CHA in whole rat brain membranes at 25 degree C
Assay type: cell membranes

## CCCn1c(=O)c2[nH]c(C3Cc4ccccc4C3)nc2n(CCC)c1=O
  Ki: 64.3 nM
